Test results published in patent publication US10828265B2, “Formulations of propranolol and analogs as an amorphous melt or ionic liquid for transdermal drug delivery” (The Regents of the University of California, priority 2016, dated 2020).

Conditions: neat melt, SD of three measurements in parentheses
Method: Standard deviations of three measurements are provided in parentheses.
Viscosity was measured using 1-mL samples with a LC-ARES Test Station (TA Instruments, New Castle, Del.) and a cone (diameter: 25 mm; angle: 0.1 rad). The cone rotation rate was 10 s^−1 and viscosity was measured three times per sample at 25° C. and 37° C. Differential scanning calorimetry (DSC) was performed with a Q2000 DSC with 50 position autosampler (TA Instruments, New Castle, Del.). Sample size was 9-10 mg, and was weighed in an aluminum hermetic pan. Samples were heated from room temperature to 120° C. under N2 atmosphere followed by cooling to […] and subsequent heating back to 120° C. with a ramp rate of 10° C. per minute.

Propranolol Melt Viscosity (25° C.): 599.5 (6.5) Pa s
Propranolol Melt Viscosity (37° C.): 87.0 (0.7) Pa s
Substance: propranolol isobutyl sulfosuccinate [PRL:C4]

Where two headings read alike, the source gives them in different places.
